Test results: patent publication EP4806909A1, “GLP-1 COMPOUND, AND PREPARATION METHOD THEREFOR AND USE THEREOF” (Shenzhen Salubris Pharmaceuticals Co., Ltd., priority 2023, dated 2025)

Protein sequences, listed by entry. Tags and fused reporters are not part of them. Residues count along the entry.
UniProt P43220, 24-463, species assumed: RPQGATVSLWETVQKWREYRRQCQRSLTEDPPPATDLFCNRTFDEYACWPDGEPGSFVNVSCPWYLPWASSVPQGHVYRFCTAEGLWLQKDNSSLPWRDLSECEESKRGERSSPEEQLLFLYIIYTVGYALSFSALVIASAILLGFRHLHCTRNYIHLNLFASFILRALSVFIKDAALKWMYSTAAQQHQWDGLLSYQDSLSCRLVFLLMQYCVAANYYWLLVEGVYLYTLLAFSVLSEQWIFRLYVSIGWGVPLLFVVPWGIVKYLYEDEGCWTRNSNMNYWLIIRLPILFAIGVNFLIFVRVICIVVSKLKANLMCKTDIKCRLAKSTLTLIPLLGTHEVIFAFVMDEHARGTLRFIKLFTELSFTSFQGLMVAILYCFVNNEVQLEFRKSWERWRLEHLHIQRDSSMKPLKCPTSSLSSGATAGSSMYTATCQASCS

How the values were obtained:
[1] = molecular target: T1, GLP-1 receptor (Homo sapiens, UniProt P43220); assay: GLP-1 activity assay (cAMP HTRF); assay type: cell-based; settings: U20S-GLP-1R stable transfected cell line, 30 minutes at 37°C
T1 construct: expressed in transfected cells
Method: The agonistic effect of the test substance on the GLP-1 receptor was determined using a U20S-GLP-1R stable transfected cell line and a HTRF detection method.
• 1. According to the experimental procedure of the cAMP-Gs Dynamic HTRF kit, the 5x Stimulation buffer (SB) provided in the kit was diluted to 1xSB with ddH2O. IBMX was added to the 1xSB solution to a final concentration of 500 µM to prevent degradation of cAMP. Then, a working solution of the test substance was prepared using 1xSB and subjected to a series of gradient dilutions. • 2. U2OS-GLP-1R cells were digested and collected. After resuspending and counting, the cell density was diluted to 2x10^6 cells/mL using 1xSB solution. Then, 5 µL per well was seeded into a 384-well cell culture plate, resulting in 10,000 cells per well. • 3. The test substances were added at different concentrations into the corresponding cell wells at 5 µL per well, and incubated in a 37°C incubator for 30 minutes. • 4. According to the steps provided by the cAMP-Gs Dynamic HTRF kit, cAMP standard solutions of different concentrations were prepared and added into the 384-well plate. • 5. The cAMP d2 reagent and Eu Cryptate antibody provided in the kit were diluted to 1x using Lysis & Detection Buffer. Then, d2 and Eu solutions were added to the 384-well plate, 5 µL each well. After incubation at room temperature for 2 hours, the plate was read using the HTRF module (665/620 nm) of a microplate reader, and experimental data was collected. • 6. A curve was plotted using the signal value versus the compound concentration. Curve fitting and EC50 calculation were performed using nonlinear regression of GraphPad Prism software. […] Table 2: GLP-1 Activity of the compounds

[2] = Pharmacokinetic experiment in rats; assay type: in vivo; settings: rat, plasma; SD rats, male, intravenous, 0.2 mg/kg, sampling to 72 hours
Method: Dulbecco's phosphate buffered saline (DPBS) (Batch No.: F2326001, Shanghai Aladdin Biochemical Technology Co., Ltd.). LC-MS instrument (Thermo TSQ Altis Plus).
SD rats: Male, 180-250g, purchased from Guangdong Vital River Laboratory Animal Technology Co., Ltd.
The test sample powder was accurately weighed and completely dissolved in Dulbecco's phosphate buffered saline free of Ca^2+/Mg^2+, mixed well to obtain a 0.1 mg/mL solution, and administered intravenously at a dose of 2 mL/kg.
After intravenous administration to the rats, approximately 200 µL of venous blood was collected into EDTA-K2 anticoagulant-coated EP tubes pre-dose and post-dose at 0, 0.5, 2, 5, 24, 48, and 72 hours . The blood was centrifuged at 12,000 rpm for 2 minutes. The plasma was collected and stored frozen at -20°C until analysis.
A certain amount of the test sample was accurately weighed and dissolved in DMSO to prepare a 2 mg/mL stock solution. An appropriate amount of the compound stock solution was accurately pipetted and diluted with an acetonitrile-aqueous solution (ACN:H2O=1:1) to prepare a series of standard solutions. […]
After determining the plasma drug concentration by LC-MS, the pharmacokinetic parameters in rats post-administration were calculated using a non-compartmental model with WinNonlin 6.1 software.

[3] = Determination of conversion half-life; assay type: physicochemical; settings: PBS buffer pH = 7.4, 200 µM, incubated at 37°C, within 2 weeks
Method: A peptide stock solution was prepared by dissolving the test sample in a PBS buffer to a target concentration of 200 µM, wherein the PBS buffer was Dulbecco's phosphate-buffered saline free of Ca^2+ and Mg^2+, pH = 7.4. The pH of the peptide stock solution was adjusted to 7.4 using HCl or NaOH. The sample was transferred to HPLC vials. The vials were capped tightly to prevent evaporation. The HPLC vials were incubated at 37°C, and samples were taken at various time points within 2 weeks, flash-frozen at -80°C, and stored at -20°C until analysis. Samples were analyzed using LC/MS or liquid chromatography. The conversion half-life of the test sample was calculated based on the reduction in the amount of the test sample prototype.

CC[C@H](C)[C@H](NC(=O)[C@H](Cc1ccccc1)NC(=O)[C@H](CCC(=O)O)NC(=O)[C@H](CCCCNC(=O)COCCOCCNC(=O)COCCOCCNC(=O)CC[C@H](NC(=O)CCCCCCCCCCCCCCCCC(=O)O)C(=O)O)NC(=O)[C@H](C)NC(=O)[C@H](C)NC(=O)[C@H](CCC(N)=O)NC(=O)CNC(=O)[C@H](CCC(=O)O)NC(=O)[C@H](CC(C)C)NC(=O)[C@H](Cc1ccc(O)cc1)NC(=O)[C@H](CO)NC(=O)[C@H](CO)NC(=O)[C@@H](NC(=O)[C@H](CC(=O)O)NC(=O)[C@H](CO)NC(=O)[C@@H](NC(=O)[C@H](Cc1ccccc1)NC(=O)[C@@H](NC(=O)CNC(=O)[C@H](CCC(=O)O)NC(=O)C(C)(C)NC(=O)[C@H](Cc1c[nH]cn1)NC(=O)CN(CCNC(=O)CC[C@H](NC(=O)CCCCCCCCCCCCCCC(=O)O)C(=O)O)C(=O)CN)[C@@H](C)O)[C@@H](C)O)C(C)C)C(=O)N[C@@H](C)C(=O)N[C@@H](Cc1c[nH]c2ccccc12)C(=O)N[C@@H](CC(C)C)C(=O)N[C@H](C(=O)N[C@@H](CCCNC(=N)N)C(=O)NCC(=O)N[C@@H](CCCNC(=N)N)C(=O)NCC(=O)O)C(C)C [Comparative Example 1, reference compound]
EC50 [1]: 90.3 nM

CC[C@H](C)[C@H](NC(=O)[C@H](Cc1ccccc1)NC(=O)[C@H](CCC(=O)O)NC(=O)[C@H](CCCCNC(=O)COCCOCCNC(=O)COCCOCCNC(=O)CC[C@H](NC(=O)CCCCCCCCCCCCCCCCC(=O)O)C(=O)O)NC(=O)[C@H](C)NC(=O)[C@H](C)NC(=O)[C@H](CCC(N)=O)NC(=O)CNC(=O)[C@H](CCC(=O)O)NC(=O)[C@H](CC(C)C)NC(=O)[C@H](Cc1ccc(O)cc1)NC(=O)[C@H](CO)NC(=O)[C@H](CO)NC(=O)[C@@H](NC(=O)[C@H](CC(=O)O)NC(=O)[C@H](CO)NC(=O)[C@@H](NC(=O)[C@H](Cc1ccccc1)NC(=O)[C@@H](NC(=O)CNC(=O)[C@H](CCC(=O)O)NC(=O)C(C)(C)NC(=O)[C@H](Cc1c[nH]cn1)NC(=O)CN(CCOCCNC(=O)CC[C@H](NC(=O)CCCCCCCCCCCCCCC(=O)O)C(=O)O)C(=O)CN)[C@@H](C)O)[C@@H](C)O)C(C)C)C(=O)N[C@@H](C)C(=O)N[C@@H](Cc1c[nH]c2ccccc12)C(=O)N[C@@H](CC(C)C)C(=O)N[C@H](C(=O)N[C@@H](CCCNC(=N)N)C(=O)NCC(=O)N[C@@H](CCCNC(=N)N)C(=O)NCC(=O)O)C(C)C [Example 5]
AUC(0-t) [2]: 81500 ng·h/mL
EC50 [1]: 15 nM

CC[C@H](C)[C@H](NC(=O)[C@H](Cc1ccccc1)NC(=O)[C@H](CCC(=O)O)NC(=O)[C@H](CCCCNC(=O)COCCOCCNC(=O)COCCOCCNC(=O)CC[C@H](NC(=O)CCCCCCCCCCCCCCCCC(=O)O)C(=O)O)NC(=O)[C@H](C)NC(=O)[C@H](C)NC(=O)[C@H](CCC(N)=O)NC(=O)CNC(=O)[C@H](CCC(=O)O)NC(=O)[C@H](CC(C)C)NC(=O)[C@H](Cc1ccc(O)cc1)NC(=O)[C@H](CO)NC(=O)[C@H](CO)NC(=O)[C@@H](NC(=O)[C@H](CC(=O)O)NC(=O)[C@H](CO)NC(=O)[C@@H](NC(=O)[C@H](Cc1ccccc1)NC(=O)[C@@H](NC(=O)CNC(=O)[C@H](CCC(=O)O)NC(=O)C(C)(C)NC(=O)[C@H](Cc1c[nH]cn1)NC(=O)CN(CCOCCNC(=O)C[C@H](NC(=O)CCCCCCCCCCCCCCC(=O)O)C(=O)O)C(=O)CN)[C@@H](C)O)[C@@H](C)O)C(C)C)C(=O)N[C@@H](C)C(=O)N[C@@H](Cc1c[nH]c2ccccc12)C(=O)N[C@@H](CC(C)C)C(=O)N[C@H](C(=O)N[C@@H](CCCNC(=N)N)C(=O)NCC(=O)N[C@@H](CCCNC(=N)N)C(=O)NCC(=O)O)C(C)C [Example 6]
AUC(0-t) [2]: 98300 ng·h/mL
EC50 [1]: 14.3 nM

CC[C@H](C)[C@H](NC(=O)[C@H](Cc1ccccc1)NC(=O)[C@H](CCC(=O)O)NC(=O)[C@H](CCCCNC(=O)COCCOCCNC(=O)COCCOCCNC(=O)CC[C@H](NC(=O)CCCCCCCCCCCCCCCCC(=O)O)C(=O)O)NC(=O)[C@H](C)NC(=O)[C@H](C)NC(=O)[C@H](CCC(N)=O)NC(=O)CNC(=O)[C@H](CCC(=O)O)NC(=O)[C@H](CC(C)C)NC(=O)[C@H](Cc1ccc(O)cc1)NC(=O)[C@H](CO)NC(=O)[C@H](CO)NC(=O)[C@@H](NC(=O)[C@H](CC(=O)O)NC(=O)[C@H](CO)NC(=O)[C@@H](NC(=O)[C@H](Cc1ccccc1)NC(=O)[C@@H](NC(=O)CNC(=O)[C@H](CCC(=O)O)NC(=O)C(C)(C)NC(=O)[C@H](Cc1c[nH]cn1)NC(=O)[C@H](CCCCNC(=O)CC[C@H](NC(=O)CCCCCCCCCCCCCCC(=O)O)C(=O)O)N(C)C(=O)CN)[C@@H](C)O)[C@@H](C)O)C(C)C)C(=O)N[C@@H](C)C(=O)N[C@@H](Cc1c[nH]c2ccccc12)C(=O)N[C@@H](CC(C)C)C(=O)N[C@H](C(=O)N[C@@H](CCCNC(=N)N)C(=O)NCC(=O)N[C@@H](CCCNC(=N)N)C(=O)NCC(=O)O)C(C)C [Example 9]
EC50 [1]: 35.8 nM
in vitro conversion half-life [3]: not less than 50 h

CC[C@H](C)[C@H](NC(=O)[C@H](Cc1ccccc1)NC(=O)[C@H](CCC(=O)O)NC(=O)[C@H](CCCCNC(=O)COCCOCCNC(=O)COCCOCCNC(=O)CC[C@H](NC(=O)CCCCCCCCCCCCCCCCC(=O)O)C(=O)O)NC(=O)[C@H](C)NC(=O)[C@H](C)NC(=O)[C@H](CCC(N)=O)NC(=O)CNC(=O)[C@H](CCC(=O)O)NC(=O)[C@H](CC(C)C)NC(=O)[C@H](Cc1ccc(O)cc1)NC(=O)[C@H](CO)NC(=O)[C@H](CO)NC(=O)[C@@H](NC(=O)[C@H](CC(=O)O)NC(=O)[C@H](CO)NC(=O)[C@@H](NC(=O)[C@H](Cc1ccccc1)NC(=O)[C@@H](NC(=O)CNC(=O)[C@H](CCC(=O)O)NC(=O)C(C)(C)NC(=O)[C@H](Cc1c[nH]cn1)NC(=O)[C@H](CCNC(=O)CC[C@H](NC(=O)CCCCCCCCCCCCCCC(=O)O)C(=O)O)N(C)C(=O)CN)[C@@H](C)O)[C@@H](C)O)C(C)C)C(=O)N[C@@H](C)C(=O)N[C@@H](Cc1c[nH]c2ccccc12)C(=O)N[C@@H](CC(C)C)C(=O)N[C@H](C(=O)N[C@@H](CCCNC(=N)N)C(=O)NCC(=O)N[C@@H](CCCNC(=N)N)C(=O)NCC(=O)O)C(C)C [Example 12]
EC50 [1]: 36.1 nM
in vitro conversion half-life [3]: not less than 50 h
